The results in this text go back to ChEMBL document CHEMBL5614410, “Design, Synthesis, and Evaluation of p53Y220C Acetylation Targeting Chimeras (AceTACs)” (J Med Chem, 2024).

Assay type in all cases: cell-based
Experiment [1] relates to CREB-binding protein/Histone acetyltransferase p300/Cellular tumor antigen p53 (Homo sapiens), P04637+Q09472+Q92793 [Y220C]. In words: AceTAC activity at FLAG-tagged p53Y220C mutant (unknown origin) expressed in human NCI-H1299 cells expressing p300/CBP assessed as fold increase in TNFRSF10A mRNA expression at 3 uM incubated for 24 hrs by RT-PCR analysis relative to control.

Experiment [2] has the same test system. In words: AceTAC activity at FLAG-tagged p53Y220C mutant (unknown origin) expressed in human NCI-H1299 cells expressing p300/CBP assessed as fold increase in p53 acetylation at lysine 382 residue at 1 uM incubated for 24 hrs by western blot analysis relative to control. Background: Immunoblotting shows a protein as a band on a membrane.
Experiment [3] has the same test system. In words: AceTAC activity at FLAG-tagged p53Y220C mutant (unknown origin) expressed in human NCI-H1299 cells expressing p300/CBP assessed as fold increase in p53 acetylation at lysine 382 residue at 10 uM incubated for 4 hrs by western blot analysis relative to control.
Experiment [4] shares this test system. Kind of experiment: AceTAC activity at FLAG-tagged p53Y220C mutant (unknown origin) expressed in human NCI-H1299 cells expressing p300/CBP assessed as fold decrease in E2F1 mRNA expression at 3 uM incubated for 24 hrs by RT-PCR analysis relative to control.
Experiment [5] has the same test system. Kind of experiment: AceTAC activity at FLAG-tagged p53Y220C mutant (unknown origin) expressed in human NCI-H1299 cells expressing p300/CBP assessed as fold increase in DUSP5 mRNA expression at 3 uM incubated for 24 hrs by RT-PCR analysis relative to control.

Regarding `CCn1c2ccc(CNCCOCCOCCOCCC(=O)NCCOc3ccc(CCc4nc5cc(-c6c(C)noc6C)ccc5n4CCN4CCOCC4)cc3F)cc2c2ccc(-c3cc(C)cs3)cc21`, the fold change (FC) in experiment [1] is greater than 2; in experiment [2], 3; in experiment [3], 2; in experiment [4], 2; in experiment [5] it was 3.
